This is an account of results in patent publication US20260217701A1, “SELECTIVE BET INHIBITORS AND USES THEREOF” (Tay Therapeutics Limited, priority 2022, published 2026).

Where “and” joins values, the source holds several entries; their conditions need not be identical. Identical values can stand only once.

A short description of data set [1]: CIA study: animal body weight. Particulars: Day 8; Group 3 (CIA + Dexamethasone); individual animals.
Data set [2] has as its system collagen-induced arthritis. Briefly: Collagen-induced arthritis (CIA) model: clinical scores and paw volume. Type of data set: in vivo, Lewis rats. Particulars: for Animal paw volume: Group 3 (CIA + Dexamethasone), individual animals; for Average animal paw volume: group 3 CIA + Dexamethasone.

As to `C[C@@H]1C[C@H]2[C@@H]3CCC4=CC(=O)C=C[C@]4(C)[C@@]3(F)[C@@H](O)C[C@]2(C)[C@@]1(O)C(=O)CO` [Dexamethasone, dexamethasone], the “Animal body weight percent change (%)” value in data set [1] is given as −11.73%. Also, the Animal paw volume was 1.26 mL in data set [2] (Day 6, L paw); 1.26 mL in data set [2] (Day 6, R paw); 1.21 mL (2×) and 1.22 mL in data set [2] (Day 12, L paw); 1.25 mL (2×) and 1.26 mL (2×) and 1.18 mL in data set [2] (Day 12, R paw); 1.23 mL and 1.24 mL and 1.25 mL in data set [2] (Day 13, L paw); 1.26 mL and 1.25 mL and 1.21 mL in data set [2] (Day 13, R paw). The Animal paw volume in data set [2] (Day 14, L paw) was 1.24 mL (3×) and 1.25 mL; in data set [2] (Day 14, R paw), 1.26 mL (4×) and 1.23 mL and 1.20 mL; in data set [2] (Day 15, L paw), 1.23 mL and 1.21 mL and 1.26 mL and 1.16 mL; in data set [2] (Day 15, R paw), 1.25 mL and 1.24 mL and 1.14 mL and 1.26 mL; in data set [2] (Day 18, L paw), 1.22 mL and 1.18 mL; in data set [2] (Day 18, R paw), 1.24 mL. Also, the Animal paw volume in data set [2] (Day 19, L paw) is 1.22 mL and 1.19 mL; in data set [2] (Day 19, R paw) it was 1.22 mL and 1.18 mL; in data set [2] (Day 21, L paw), 1.26 mL and 1.22 mL and 1.18 mL; in data set [2] (Day 21, R paw) it was 1.26 mL and 1.22 mL and 1.18 mL. Further, the “Average animal paw volume” value in data set [2] (Day 12, R paw) is on record as 1.26 mL; in data set [2] (Day 14, R paw), 1.26 mL; in data set [2] (Day 15, L paw) it was 1.26 mL; in data set [2] (Day 15, R paw), 1.26 mL.
